Where two headings read alike, the source gives them in different places. One block for each compound: values may come before it.
Experiments:
[1] = Plasma free fraction (fu) and unbound Cmax (Cmax,u); type: in vitro ADME, human; conditions: unbound plasma Cmax
[2] = system: primary human hepatocytes, NIH3T3 fibroblasts, BSEP, CYP3A4; conditions: In vitro Assay; ref Schadt 2015; cited from earlier work
PHH = conditions: 2D PHH, ATP, IC50 < 100 × Cmax.tot; ref Proctor et al. 2017; cited from earlier work
hLiMTs = conditions: ATP, IC50 < 100 × Cmax.tot, ref Proctor et al. 2017; cited from earlier work
[3] = cited from earlier work

Compound: CS(=O)(=O)CCNCc1ccc(-c2ccc3ncnc(Nc4ccc(OCc5cccc(F)c5)c(Cl)c4)c3c2)o1 [lapatinib]
Human plasma Cmax,u [1]: 116 nM

Compound: NC(=O)N1c2ccccc2CC(=O)c2ccccc21 [oxcarbazeptin]
Cellular toxicity (3T3 cells) [2]: -VE
Combined Assay [2]: +VE
GSH adduct HML [2]: +VE
Hepatocyte cellular toxicity [2]: -VE
MitoTox 3T3 [2]: -VE
TDI CYP3A4 [2]: -VE
hBSEP inhibition [2]: -VE

Human plasma Cmax,u [1]: 216 nM
Compound: C1CCC(C(CC2CCCCN2)C2CCCCC2)CC1 (stereo not shown) [perhexiline]
PHH/100xCmax, Proctor (2017) (PHH): +VE (IC50 < 100 × Cmax.tot)
hLiMTs/100xCmax, Proctor (2017) (hLiMTs): +VE (IC50 < 100 × Cmax.tot)

Compound: benzylpenicilloyl polylysine
DILI +VE (5-8), DILI -VE (-4) ([3]; binary DILI call, ref Chen 2016): -VE

Compound: cetuximab
DILI +VE (5-8), DILI -VE (-4) ([3]; in vivo): -VE

Compound: choriogonadotropin alfa
DILI +VE (5-8), DILI -VE (-4) ([3]; in vivo): -VE
DILI severity category ([3]; in vivo): Ambiguous DILI-concern

Compound: eculizumab
DILI +VE (5-8), DILI -VE (-4) ([3]; in vivo): -VE

Compound: follitropin alfa/beta
DILI +VE (5-8), DILI -VE (-4) ([3]; in vivo): -VE
DILI severity category ([3]; in vivo): Ambiguous DILI-concern

Compound: interferon alfa-2b
DILI +VE (5-8), DILI -VE (-4) ([3]; in vivo): +VE

Compound: interferon beta-1a
DILI +VE (5-8), DILI -VE (-4) ([3]; in vivo): +VE

Compound: peginterferon alfa-2b
DILI +VE (5-8), DILI -VE (-4) ([3]; in vivo): +VE

Compound: thyrotropin alfa
DILI +VE (5-8), DILI -VE (-4) ([3]; in vivo): -VE

Compound: trastuzumab
DILI +VE (5-8), DILI -VE (-4) ([3]; in vivo): +VE
DILI severity category ([3]; in vivo): vLess-DILI-Concern

Compound: urofollitropin
DILI +VE (5-8), DILI -VE (-4) ([3]; in vivo): -VE

From article PMC7395068, “The evolution of strategies to minimise the risk of human drug-induced liver injury (DILI) in drug discovery and development” (Archives of Toxicology, 2020)
